The nature of the series: Solubility of cerium compound in simulated gastric fluid (appearance and absorbance). The note with it: 0.05 M cerium in simulated gastric fluid (pH ca. 1.2), inversion mixing at room temperature about one hour.

As to “cerium(III) chloride heptahydrate [cerium chloride]”, the “appearance of measurement sample in simulated gastric fluid” value is given as “clear liquids without visually observable precipitate”.

Consider cerium(III) nitrate [cerium nitrate], for which the “appearance of measurement sample in simulated gastric fluid” value is “clear liquids without visually observable precipitate”.

The values are drawn from EP4653003A1, “PHARMACEUTICAL COMPOSITION HAVING CERIUM COMPOUND CONTAINING TRIVALENT CERIUM AS ACTIVE INGREDIENT” (Applause Pharma Co., Ltd., priority 2023, dated 2024).
